{"source": "paper PMC11279401", "about": "“Inhibitory Effect of Selected Guaianolide and Germacranolide Sesquiterpene Lactones on Nitric Oxide Production” (Molecules, 2024)", "test_system": "mouse peritoneal cells", "assay": "Cytotoxicity assay (WST-1), viability of mouse peritoneal cells", "assay_type": "cell-based", "conditions": "10 µM compound, primary murine macrophages", "protocol": "The tested compounds were dissolved in dimethyl sulfoxide (DMSO) to make stock solutions at a concentration of 50 mM, and then stored at −20 °C. Their biological activities were screened using a final concentration of 10 µM.\nThe animals were killed by cervical dislocation and injected intraperitoneally with 8 mL of sterile saline. Pooled peritoneal cells collected from the mice (n = 4–6 in individual experiments) were washed and re-suspended in a culture medium. The cell suspension was seeded onto 96-well round-bottom microplates (Costar, Corning, NY, USA). Final samples were supplemented to 100 µL volumes, containing 1–2 × 10^6 cells per well, depending on the assay. Cultures were maintained at 37 °C, 5% CO2 in a humidified incubator (Heraeus Holding GmbH, Hanau, Germany).\nThe viability of mouse peritoneal cells was determined using a colorimetric assay based on the cleavage of tetrazolium salt WST-1 by mitochondrial dehydrogenases in viable cells (Roche Diagnostics, Mannheim, Germany). The cells (1 × 10^6/mL) were cultured as described above. The viability of primary murine macrophages was tested in the presence of 10 µM of the respective test substance for […]. After the first 24 h of cultivation, WST-1 was added (10 µL), and the cells were kept in a Heraeus incubator at 37 °C for an additional 3 h. […] Optical density was evaluated at wavelengths of 450–690 nm.", "note": "Entries after “also recorded” stand apart in the source; their conditions may differ."}
{"smiles": "C=C1C(=O)O[C@@H]2C[C@@H](C)[C@@H]3C=CC(=O)[C@@]3(C)[C@@H](O)[C@H]12", "note": "[Compound 15, helenalin]", "values": [{"measurement": "Cytotoxicity / effect on cell viability (in words)", "result": "cytotoxic; also recorded: remarkable cytotoxicity"}]}
